Antibody variant affinities, Ab-14 heavy chain, assay 1

Reference: Engelhart et al. 2022, doi:10.1038/s41597-022-01779-4. File: FLAb, binding data.

Target peptide (SARS-CoV-2 spike, HR2 region): PDVDLGDISGINAS

Ab-14 is the parent antibody, in scFv form: VH, then three GGGGS repeats, then VL. The light chain is unchanged in all variants.
VH: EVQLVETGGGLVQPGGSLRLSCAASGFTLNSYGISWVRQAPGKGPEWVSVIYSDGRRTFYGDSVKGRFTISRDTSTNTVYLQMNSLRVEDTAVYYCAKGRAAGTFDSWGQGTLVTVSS
VL: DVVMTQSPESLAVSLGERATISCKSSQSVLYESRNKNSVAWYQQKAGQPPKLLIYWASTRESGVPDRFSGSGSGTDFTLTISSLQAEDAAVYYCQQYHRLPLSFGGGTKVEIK

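Phage display of a naive human antibody library on the peptide gave the parent. Library AAYL49 holds single substitutions and randomly drawn double and triple substitutions in the CDRs. Affinity was read by AlphaSeq, a pooled yeast mating assay with surface-displayed partners. After mating in shaken culture at 30 °C for 16 h, diploids were selected and their barcode pairs sequenced. Scores were corrected for input abundance and mapped to Kd with protein pairs of known affinity run in the same pool. Mating was done three times.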

Changes read parent residue, position, new residue, counted from the first residue of the VH shown.
Kd is apparent (estimated from mating counts) and averaged on the log scale over replicates with a signal. Smaller is tighter.
An entry "not detected" has no value in the source: the pair was not observed among the diploids in any replicate. This suggests poor binding but is not conclusive.

Kd	detected	control signals	changes
1.0 µM	1/3	3/9	S35E T58K V64N
not detected	0/3	1/9	Y32E I51Y R57M
not detected	0/3	1/9	N30P S63W A102Y
130 µM	1/3	5/9	S35Y S63M G99T
7.4 µM	2/3	4/9	A101S G103L
20 µM	1/3	2/9	T28Y V50F S63F
41 µM	1/3	2/9	V50P R57L
not detected	0/3	0/9	T28F I51H T104N
12 µM	2/3	0/9	N30W G55L S107W
not detected	0/3	0/9	F27R R56E
not detected	0/3	0/9	T28N Y52I G99A
not detected	0/3	1/9	N30F T58D G99E
not detected	0/3	0/9	I51L Y52I
not detected	0/3	1/9	I51Y Y52Q G99M
not detected	0/3	0/9	G61A K65T A101G
not detected	0/3	1/9	K65H G103W
not detected	0/3	0/9	G33Y F105Q S107A
29 µM	3/3	1/9	Y32R G61R F105I
not detected	0/3	0/9	T28G R57T Y60N
91 µM	2/3	4/9	S31W I34N G55D
not detected	0/3	0/9	S53T G55P G103N
not detected	0/3	0/9	F27L G55F Y60D
not detected	0/3	0/9	R56S R57F
not detected	0/3	2/9	I51H R56D K65H
70 µM	1/3	1/9	V50W S63M R100T
1.2 µM	1/3	0/9	D62C A101L F105T
31 µM	1/3	1/9	I34T Y60D V64M
not detected	0/3	0/9	V50G V64F A102I
1.2 mM	1/3	5/9	F27A D54H D62N
not detected	0/3	1/9	F27L V50T Y60G
17 nM	3/3	1/9	F27D Y32Q S107E
53 nM	1/3	1/9	T28S G55R D62N
not detected	0/3	4/9	S31Q I34S G55K
not detected	0/3	0/9	V50P K65D D106C
not detected	0/3	1/9	K65R A101G G103V
not detected	0/3	0/9	K65A A101H T104M
37 µM	2/3	1/9	T28L G55I R56I
730 nM	1/3	0/9	N30W T58H R100Y
not detected	0/3	0/9	S31R G55V S63C
47 µM	1/3	2/9	G26K L29T G33H
99 µM	1/3	0/9	L29E S53K F59S
not detected	0/3	4/9	D54I G103P T104V
not detected	0/3	1/9	G33H S35H G55Y
8.6 µM	1/3	0/9	V64C A102P F105V
not detected	0/3	1/9	L29N F59C S63V
35 µM	1/3	3/9	V50L R56H T58R
not detected	0/3	1/9	V50W G103C F105V
68 µM	3/3	3/9	S31N Y32W A102C
870 nM	3/3	4/9	L29V S63D
35 µM	2/3	3/9	T28E Y52N
880 nM	1/3	1/9	T28G G55S F105I
not detected	0/3	0/9	G26R K65T G103Q
830 nM	1/3	1/9	D54S K65W G103S
6.4 µM	1/3	2/9	Y32H R56T A102D

Repeated from above, the 4 best binders with a signal in all replicates:

changes	Kd	detected	control signals
F27D Y32Q S107E	17 nM	3/3	1/9
L29V S63D	870 nM	3/3	4/9
Y32R G61R F105I	29 µM	3/3	1/9
S31N Y32W A102C	68 µM	3/3	3/9

Nonspecific signal, from three strains lacking the peptide, appeared in 15% of pairings of library AAYL49, centred on 11 µM (5% of these signals below 680 nM); values are not corrected for it. Also given: how often the same scFv was detected with the empty control strains.